# Source: US20060234308
# System: Cys-βAla-Leu-Arg-Arg-Ala-Ser-Leu-Gly-NH2
substance,measurement,value
Protein kinase A,"signal intensity of the spot (32P incorporation, PhosphorImager) on modified glass, against the Ser->Ala control peptide",the signal for the substrate amino acid sequence is a factor of 4-5 larger than the signal for the corresponding control amino acid sequence
same,"signal intensity of the spot (32P incorporation, PhosphorImager) on modified glass, against the Ser->Ala control peptide (FIG. 4)",The signal intensity for the purified amino acid sequence is approximately 300 times higher than that for the corresponding control amino acid sequence
same,"signal intensity of the spot (32P incorporation, PhosphorImager) on modified glass, against the Ser->Ala control peptide (FIG. 5)",the signal intensity for the substrate amino acid sequence is 800% higher than that for the control product
same,"signal intensity of the spot (32P incorporation, PhosphorImager) on modified glass, purified peptide against the raw synthesis product of the same peptide (FIG. 4)",the signal intensity for the purified amino acid sequence is 500% higher than that for the synthesis product
